Measurements: BindingDB's records for doi:10.1016/j.ejmech.2017.03.079 (Taipei Medical University (Tmu), 2017)

Biological target: T1, Histone deacetylase 8 (Homo sapiens, UniProt Q9BY41)
T1 sequence (Q9BY41 whole entry): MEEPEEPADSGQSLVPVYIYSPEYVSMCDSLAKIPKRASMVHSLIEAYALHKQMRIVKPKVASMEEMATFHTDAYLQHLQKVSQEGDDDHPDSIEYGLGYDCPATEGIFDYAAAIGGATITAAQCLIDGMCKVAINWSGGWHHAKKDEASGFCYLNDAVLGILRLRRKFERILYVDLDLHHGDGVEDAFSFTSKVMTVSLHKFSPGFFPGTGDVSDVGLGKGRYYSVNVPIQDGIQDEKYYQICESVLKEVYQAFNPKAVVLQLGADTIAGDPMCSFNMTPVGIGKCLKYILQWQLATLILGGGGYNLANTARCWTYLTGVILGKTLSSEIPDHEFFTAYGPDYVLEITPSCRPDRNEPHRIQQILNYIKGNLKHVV
Test: Inhibition of recombinant human full length HDAC8 using Fluor-de-Lys as substrate after 60 mins by spectrofluorimetric analysis

In the case of `O=C(CCCCCCC(=O)Nc1ccccc1)NO` [Zolinza], the IC50 is reported as > 1000 nM.
